Source: ChEMBL document CHEMBL3856219, “The "Cyclopropyl Fragment" is a Versatile Player that Frequently Appears in Preclinical/Clinical Drug Molecules” (J Med Chem, 2016)

The chains behind the UniProt entries cited, without tags or fusion partners. Where a name states a change or a piece, a line headed by the entry shows the natural chain unless it says otherwise.
UniProt P41145: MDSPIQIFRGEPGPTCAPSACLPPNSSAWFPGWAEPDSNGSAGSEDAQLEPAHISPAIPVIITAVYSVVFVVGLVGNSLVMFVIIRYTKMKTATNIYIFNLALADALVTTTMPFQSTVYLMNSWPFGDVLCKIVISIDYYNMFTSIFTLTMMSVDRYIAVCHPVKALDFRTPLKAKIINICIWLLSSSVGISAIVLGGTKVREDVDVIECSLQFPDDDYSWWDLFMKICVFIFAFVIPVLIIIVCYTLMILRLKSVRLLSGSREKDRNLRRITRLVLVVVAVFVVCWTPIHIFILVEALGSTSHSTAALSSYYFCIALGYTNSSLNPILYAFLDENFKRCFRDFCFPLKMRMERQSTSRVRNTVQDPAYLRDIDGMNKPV

Target: Kappa-type opioid receptor (Homo sapiens, UniProt P41145)

C=C1CC[C@@]2(O)[C@H]3Cc4ccc(O)c5c4[C@@]2(CCN3CC2CC2)[C@H]1O5
Ki: 0.083 nM
